# Source: PubChem BioAssay AID2014 (Sanford-Burnham Center for Chemical Genomics, 2009)
# Amino acid sequences for entries named in this document (tags omitted).
# UniProt P11940, whole entry: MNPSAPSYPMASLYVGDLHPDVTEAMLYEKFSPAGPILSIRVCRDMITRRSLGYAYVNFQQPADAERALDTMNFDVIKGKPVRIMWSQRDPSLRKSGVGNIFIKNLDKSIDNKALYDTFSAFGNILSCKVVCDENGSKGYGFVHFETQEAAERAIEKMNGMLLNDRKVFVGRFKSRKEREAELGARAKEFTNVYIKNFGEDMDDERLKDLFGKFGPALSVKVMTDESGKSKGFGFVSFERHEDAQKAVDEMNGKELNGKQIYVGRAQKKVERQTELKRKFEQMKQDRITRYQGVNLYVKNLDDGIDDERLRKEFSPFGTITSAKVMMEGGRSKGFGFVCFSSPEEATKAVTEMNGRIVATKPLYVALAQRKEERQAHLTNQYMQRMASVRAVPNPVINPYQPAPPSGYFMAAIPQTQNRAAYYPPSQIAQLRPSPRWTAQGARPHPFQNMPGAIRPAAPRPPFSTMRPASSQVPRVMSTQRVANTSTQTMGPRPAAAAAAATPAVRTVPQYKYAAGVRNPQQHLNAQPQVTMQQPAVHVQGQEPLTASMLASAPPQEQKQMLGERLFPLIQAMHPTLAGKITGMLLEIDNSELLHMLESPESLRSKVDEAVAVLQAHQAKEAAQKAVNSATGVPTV
# The list shows a part of the results, in another mix than the full data. Calls of active or inactive are those of the source. How the calls were made is not given here.
# Target: Polyadenylate-binding protein 1 (Homo sapiens) (UniProt P11940)
# Assay: blockers of PABP interaction with poly(A) – biochemical, fluorescence polarization, uHTS, primary screen (AID 2014)
# Settings: PABP-poly(A) RNA binding, at 35 µM, stronger effect = higher value
row,Structure (SMILES),inhibition
1,COc1cc(C(=O)NCC2(N3CCCCC3)CCCCC2)ccc1OC(F)F,inactive: 33.5%
2,O=C(NCC1(N2CCOCC2)CCCCC1)c1cc(=O)[nH]c2ccccc12,inactive: -4%
3,CN1CCN(CCOC(=O)C(O)(c2ccccc2)c2ccccc2)CC1,inactive: 9.8%
4,COc1ccc(NC2CCN(C(=O)OC(C)(C)C)CC2)cc1,inactive: 6.5%
5,O=C(NCC1(N2CCCCC2)CCCCC1)c1cccc(C(F)(F)F)c1,inactive: 8.6%
6,CCN1CCC(Nc2ccc(Cl)cc2)CC1,inactive: -4.6%
7,N#CC1(Nc2ccccc2)CCN(CCc2ccccc2)CC1,inactive: -7.9%
8,O=C(NCC1(N2CCCCC2)CCCCC1)c1cccc([N+](=O)[O-])c1,inactive: 1.2%
9,O=C(NCC1(N2CCCCC2)CCCCC1)c1ccc(OC(F)F)cc1,inactive: 5.4%
10,CCCOc1ccc(C(=O)NCC2(N(C)C)CCCCC2)cc1OC,inactive: 4%
11,COc1cc(OC)c(C(=O)NCC2(N(C)C)CCCCC2)cc1OC,inactive: 3.2%
12,CC(C)c1ccc(NC2CCN(C(=O)OC(C)(C)C)CC2)cc1,inactive: -4.7%
13,COc1ccc(CN(CCCl)CCCl)cc1Cl,active: 63.9%
14,CN(C)c1cccc(C(=O)NCC2(N3CCCCC3)CCCCC2)c1,inactive: -6%
15,O=C(OC1CN2CCC1CC2)C1c2ccccc2Oc2ccccc21 (centres undefined),inactive: -6.1%
16,N#CC1(Nc2ccccc2)CCN(Cc2ccccc2)CC1,inactive: -10.4%
17,CCOC(=O)N1CCC(Nc2ccc(OC)cc2)CC1,inactive: 18.7%
18,Cc1cc(C)cc(N(C(=O)c2ccccc2)C2CCN(C(=O)OC(C)(C)C)CC2)c1,inactive: 6.6%
19,O=C(NCC1(N2CCOCC2)CCCCC1)c1cc2ccccc2o1,inactive: 6.8%
20,CSc1ccccc1C(=O)NCC1(N2CCCCC2)CCCCC1,inactive: 8.6%
21,COc1ccc(C(=O)NCC2(N3CCCCC3)CCCCC2)cc1,inactive: 3.3%
22,CC(C)(C)OC(=O)N1CCC(N(C(=O)c2ccccc2)c2ccc(F)cc2)CC1,inactive: 3.8%
23,COc1ccc(C(=O)NCC2(N3CCCCC3)CCCCC2)c(OC)c1OC,inactive: -2.8%
24,O=C(NCC1(N2CCCCC2)CCCCC1)c1ccc(=O)[nH]c1,inactive: -2.2%
25,COc1cc(C(=O)NCC2(N(C)C)CCCCC2)ccc1OC(F)F,inactive: -5.1%
26,CCOC(=O)N1CCC(Nc2cccc(C)c2)CC1,inactive: -9.2%
27,Cc1ccc(OCC(C)C)c(CN(CCCl)CCCl)c1,active: 71.4%

row,Structure (SMILES),inhibition
1,O=C(NCC1(N2CCCCC2)CCCCC1)c1ccc(F)cc1,inactive: 5.3%
2,COc1ccc(NC2CCN(CCc3ccccc3)CC2)c(OC)c1,inactive: 20%
3,CCOC(=O)N1CCC(Nc2ccc(F)cc2)CC1,inactive: 4.1%
4,CCOc1ccc(C)cc1CN(CCCl)CCCl,active: 72.4%
5,CN(C)c1ccc(C(=O)NCC2(N3CCCCC3)CCCCC2)cc1,inactive: -2.5%
6,CCN1CCC(Nc2cccc(F)c2)CC1,inactive: -1.5%
7,Fc1ccccc1NC1CCN(Cc2ccccc2)CC1,inactive: 15.2%
8,COc1cc(OC)cc(C(=O)NCC2(N3CCCCC3)CCCCC2)c1,inactive: -4.7%
9,CN1CCC(Nc2ccc(Cl)cc2)CC1,inactive: -3.6%
10,CCCOc1ccc(C)cc1CN(CCCl)CCCl,active: 74.4%
11,COc1cc(OC)cc(C(=O)NCC2(N3CCOCC3)CCCCC2)c1,inactive: -5.7%
12,COc1cccc(C(=O)N(c2cc(C)cc(C)c2)C2CCN(C(=O)OC(C)(C)C)CC2)c1,inactive: 8.2%
13,CCC(CO)(C(=O)OC1CN2CCC1CC2)c1ccccc1 (centres undefined),inactive: 4.3%
14,CC(C)(C)OC(=O)N1CCC(Nc2ccccc2)CC1,inactive: 1.2%
15,O=C(O)C1(Nc2ccccc2)CCN(Cc2ccccc2)CC1,inactive: 0.1%
16,CCCOc1ccc(C(=O)NCC2(N(C)C)CCCCC2)cc1,inactive: -0.1%
17,CCOc1ncccc1C(=O)NCC1(N2CCOCC2)CCCCC1,inactive: 8.8%
18,CN1CCC(Nc2ccc(F)c(Cl)c2)CC1,inactive: -4.9%
19,O=C(OC1CN2CCC1CC2)C1c2ccccc2C=Cc2ccccc21 (centres undefined),inactive: -9.4%
20,CCOC(=O)N1CCC(Nc2ccc(C)cc2)CC1,inactive: 10.9%
21,N/C(=N\O)c1c(N)no[n+]1[O-],inactive: -0.9%
22,COc1ccc(C(=O)NCC2(N3CCOCC3)CCCCC2)cc1OC,inactive: -5.9%
23,CN(C)C1(CNC(=O)c2cccc(C#N)c2)CCCCC1,inactive: -8.5%
24,c1ccc(CN2CCC(Nc3ccccc3)CC2)cc1,inactive: 0.2%
25,CCCN1CCC(Nc2cc(OC)cc(OC)c2)CC1,inactive: 54.1%
26,N#Cc1ccc(C(=O)NCC2(N3CCCCC3)CCCCC2)cc1,inactive: -18.5%
27,CC(C)(C)OC(=O)N1CCC(N(C(=O)c2ccccc2)c2ccc(Cl)cc2)CC1,inactive: -4.7%
